# Measured values as given in US8263592B2, “Equilibrative nucleoside transporter ENT1 inhibitors” (Janssen Pharmaceutica NV, priority 2007, dated 2012).
# Chains of the proteins cited; added tags and fusions are not shown.
# UniProt Q99808, whole entry: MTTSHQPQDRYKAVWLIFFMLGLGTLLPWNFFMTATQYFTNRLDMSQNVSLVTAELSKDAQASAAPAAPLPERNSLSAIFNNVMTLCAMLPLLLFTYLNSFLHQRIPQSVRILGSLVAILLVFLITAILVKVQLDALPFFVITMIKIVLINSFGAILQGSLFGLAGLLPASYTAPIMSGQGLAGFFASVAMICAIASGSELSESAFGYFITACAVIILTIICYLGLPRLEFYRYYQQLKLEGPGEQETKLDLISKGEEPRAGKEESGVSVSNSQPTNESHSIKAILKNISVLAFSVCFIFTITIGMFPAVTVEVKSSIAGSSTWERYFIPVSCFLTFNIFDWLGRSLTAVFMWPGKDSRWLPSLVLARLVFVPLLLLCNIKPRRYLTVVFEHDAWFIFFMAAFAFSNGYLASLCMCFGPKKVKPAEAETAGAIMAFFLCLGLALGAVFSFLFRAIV
# Molecular target: human ENT1 transporter (Homo sapiens, UniProt Q99808)
# Experiment: hENT1-NBMPR-ERYTH binding assay ([3H]NBMPR, human erythrocytes)
# Conditions: [3H]NBMPR 1 nM, washed human red blood cells 1:200, 30 minutes at room temperature; pIC50=-log(IC50)
row,Compound,pIC50 values for ENT1 transporter inhibition
1,COCCCN(C(C)=O)c1cc2c(cc1C)C(=O)CC1(CCN(CCNC(=O)c3c(Cl)cccc3Cl)CC1)O2,8.74
2,CC(=O)N1CCC(Nc2cc3c(cc2Cl)C(=O)NC2(CCN(CCNC(=O)c4c(C)cccc4C)CC2)O3)CC1,7.71
3,O=C1CC2(CCN(CCNC(=O)c3c(Cl)cccc3Cl)CC2)Oc2c1ccc(NCC1CCCC1)c2Cl,8.82
4,CN(C)c1cc2c(cc1Cl)C(=O)NC1(CCN(CCNC(=O)c3c(Cl)cccc3Cl)CC1)O2,8.48
5,CNc1ccc2c(c1Cl)OC1(CCN(CCNC(=O)c3c(Cl)cccc3Cl)CC1)NC2=O,8.56
6,COc1cc(Cl)cc2c1OC1(CCN(CCNC(=O)c3c(Cl)cccc3Cl)CC1)NC2=O,7.725
7,COc1cc(C)cc2c1OC1(CCN(CCNC(=O)c3c(Cl)cccc3Cl)CC1)CC2=O,7.735
8,Cc1cc(NC(=O)OC(C)(C)C)c2c(c1)C(=O)CC1(CCN(CCNC(=O)c3c(Cl)cccc3Cl)CC1)O2,8.73
9,Cc1cccc(C)c1C(=O)NCCN1CCC2(CC1)CC(=O)c1cc(Cl)c(NC3CCOCC3)cc1O2,7.55
10,Cc1cccc(C)c1C(=O)NCCN1CCC2(CC1)CC(=O)c1cc(Cl)c(OC(C)C)cc1O2,7.92
11,COCCCNc1cc2c(cc1Cl)C(=O)CC1(CCN(CCNC(=O)c3c(Cl)cccc3Cl)CC1)O2,9.22
12,COc1ccc2c(c1)C(=O)CC1(CCN(CCNC(=O)c3c(Cl)cccc3Cl)CC1)O2,6.60
13,CC(C)Oc1cc2c(cc1Cl)CCC1(CCN(CCNC(=O)c3c(Cl)cccc3Cl)CC1)O2,9.12
14,Cc1cc2c(c(N3CCOCC3)c1)OC1(CCN(CCNC(=O)c3c(C)cccc3C)CC1)NC2=O,6.19
15,CC(=O)Nc1ccc2c(c1)C(=O)CC1(CCN(CCNC(=O)c3c(Cl)cccc3Cl)CC1)O2,6.83
16,Cc1cccc(C)c1C(=O)NCCN1CCC2(CC1)NC(=O)c1cc(Cl)cc(OC3CCCC3)c1O2,6.88
17,O=C1CC2(CCN(CCNC(=O)c3c(Cl)cccc3Cl)CC2)Oc2c(Cl)cccc21,8.34
18,CN(C)c1cc(Cl)cc2c1OC1(CCN(CCNC(=O)c3c(Cl)cccc3Cl)CC1)NC2=O,7.52
19,Cc1cc2c(cc1OC(C)C)OC1(CCN(CCNC(=O)c3c(Cl)cccc3Cl)CC1)CC2=O,9.41
20,O=C1NC2(CCN(CCNC(=O)c3c(Cl)cccc3Cl)CC2)Oc2c1ccc(NC1CCCC1)c2Cl,8.31
21,CC(=O)N1CCC(Nc2cc(C)cc3c2OC2(CCN(CCNC(=O)c4c(Cl)cccc4Cl)CC2)CC3=O)CC1,8.535
22,O=C(NCCN1CCC2(CC1)CC(=O)c1c(cccc1N1CCCC1)O2)c1c(Cl)cccc1Cl,7.88
23,Cc1cccc(C)c1C(=O)NCCN1CCC2(CC1)NC(=O)c1cc(Cl)c(NCCCO)cc1O2,7.38
24,CN(C)c1ccc2c(c1)OC1(CCN(CCNC(=O)c3c(Cl)cccc3Cl)CC1)NC2=O,8.35
25,CC(=O)N1CCC(Nc2ccc3c(c2Cl)OC2(CCN(CCNC(=O)c4c(Cl)cccc4Cl)CC2)CC3=O)CC1,7.345

row,Compound,pIC50 values for ENT1 transporter inhibition
1,Cc1ccc2c(c1)C(=O)CC1(CCN(CCNC(=O)c3c(Cl)cccc3Cl)CC1)O2,7.25
2,O=C1CC2(CCN(CCNC(=O)c3c(Cl)cccc3Cl)CC2)Oc2cc(NC3CCNCC3)c(Cl)cc21,8.17
3,CC(=O)N(C)c1cc2c(cc1C)C(=O)CC1(CCN(CCNC(=O)c3c(Cl)cccc3Cl)CC1)O2,8.10
4,COCCCNc1cc(Cl)cc2c1OC1(CCN(CCNC(=O)c3c(Cl)cccc3Cl)CC1)NC2=O,7.56
5,O=C(NCCN1CCC2(CC1)CC(O)c1cc(Cl)c(NC3CCCC3)cc1O2)c1c(Cl)cccc1Cl (centres unmarked),8.55
6,COCCCNc1ccc2c(c1Cl)OC1(CCN(CCNC(=O)c3c(C)cccc3C)CC1)NC2=O,7.895
7,O=C1NC2(CCN(CCNC(=O)c3c(Cl)cccc3Cl)CC2)Oc2c(NCCCO)cc(Cl)cc21,7
8,CC(=O)N1CCC(Oc2cc(Cl)cc3c2OC2(CCN(CCNC(=O)c4c(Cl)cccc4Cl)CC2)NC3=O)CC1,7.45
9,CC(=O)N1CCC(Nc2cc(Cl)cc3c2OC2(CCN(CCNC(=O)c4c(Cl)cccc4Cl)CC2)NC3=O)CC1,8.31
10,Cc1cccc(C)c1C(=O)NCCN1CCC2(CC1)NC(=O)c1cc(Cl)c(N3CCOCC3)cc1O2,7.26
11,Cc1cc2c(cc1NC(=O)CC1CCCC1)OC1(CCN(CCNC(=O)c3c(Cl)cccc3Cl)CC1)CC2=O,8.175
12,Cc1cccc(C)c1C(=O)NCCN1CCC2(CC1)NC(=O)c1cc(Cl)cc(N)c1O2,5.94
13,O=C1NC2(CCN(CCNC(=O)c3c(Cl)cccc3Cl)CC2)Oc2c1ccc(NC1CCOCC1)c2Cl,7.375
14,CC(=O)N1CCC(Nc2ccc3c(c2Cl)OC2(CCN(CCNC(=O)c4c(Cl)cccc4Cl)CC2)NC3=O)CC1,7.09
15,O=C1NC2(CCN(CCNC(=O)c3c(Cl)cccc3Cl)CC2)Oc2c1ccc(NCCCO)c2Cl,8.28
16,O=C1CC2(CCN(CCNC(=O)c3c(Cl)cccc3Cl)CC2)Oc2ccc([N+](=O)[O-])cc21,6.36
17,CN1CCC(Nc2cc3c(cc2Cl)C(=O)CC2(CCN(CCNC(=O)c4c(Cl)cccc4Cl)CC2)O3)CC1,7.20
18,Cc1cc2c(cc1OC1CCCC1)OC1(CCN(CCNC(=O)c3c(Cl)cccc3Cl)CC1)CC2O (centres unmarked),8.54
19,CC(C)Oc1cc2c(cc1Cl)C=CC1(CCN(CCNC(=O)c3c(Cl)cccc3Cl)CC1)O2,9.73
20,O=C1NC2(CCN(CCNC(=O)c3c(Cl)cccc3Cl)CC2)Oc2cc(OC3CCCC3)c(Cl)cc21,9.10
21,Cc1cc(OC(C)C)c2c(c1)C(=O)CC1(CCN(CCNC(=O)c3c(Cl)cccc3Cl)CC1)O2,8.44
22,Cc1cccc(C)c1C(=O)NCCN1CCC2(CC1)CC(=O)c1cc(Cl)c(N3CCOCC3)cc1O2,7.91
23,CN1CCC(Nc2cc3c(cc2Cl)C(=O)NC2(CCN(CCNC(=O)c4c(Cl)cccc4Cl)CC2)O3)CC1,7.08
24,O=C1CC2(CCN(CCNC(=O)c3c(Cl)cccc3Cl)CC2)Oc2c(OC3CCCC3)cc(Cl)cc21,8.16
25,O=C1CC2(CCN(CCNC(=O)c3c(Cl)cccc3Cl)CC2)Oc2cc(OC3CCNCC3)c(Cl)cc21,8.38

row,Compound,pIC50 values for ENT1 transporter inhibition
1,Cc1cc(NC2CCCC2)c2c(c1)C(=O)NC1(CCN(CCNC(=O)c3c(C)cccc3C)CC1)O2,7.905
2,O=C(NCCN1CCC2(CC1)CC(O)c1cc(Cl)c(OC3CCCC3)cc1O2)c1c(Cl)cccc1Cl (centres unmarked),8.87
3,O=C1NC2(CCN(CCNC(=O)c3c(Cl)cccc3Cl)CC2)Oc2cc(NC3CCCC3)ccc21,8.39
4,CN1CCN(c2cc3c(cc2Cl)C(=O)NC2(CCN(CCNC(=O)c4c(Cl)cccc4Cl)CC2)O3)CC1,7.96
5,Cc1cc2c(c(N(C)C)c1)OC1(CCN(CCNC(=O)c3c(C)cccc3C)CC1)NC2=O,7.36
6,COc1cccc2c1C(=O)CC1(CCN(CCNC(=O)c3c(Cl)cccc3Cl)CC1)O2,6.11
7,CC(=O)Nc1ccc2c(c1)OC1(CCN(CCNC(=O)c3c(Cl)cccc3Cl)CC1)CC2=O,7.38
8,Cc1cc2c(cc1N(C)C(=O)C1CCCC1)OC1(CCN(CCNC(=O)c3c(Cl)cccc3Cl)CC1)CC2=O,8.335
9,Cc1cccc(C)c1C(=O)NCCN1CCC2(CC1)NC(=O)c1cc(Cl)c(NCC3CCCC3)cc1O2,8.01
10,Cc1cc(O)c2c(c1)C(=O)CC1(CCN(CCNC(=O)c3c(Cl)cccc3Cl)CC1)O2,7.005
11,O=C1NC2(CCN(CCNC(=O)c3c(Cl)cccc3Cl)CC2)Oc2cc(N3CCOCC3)c(Cl)cc21,8.69
12,O=C1NC2(CCN(CCNC(=O)c3c(Cl)cccc3Cl)CC2)Oc2cc(-n3ccnc3)ccc21,6.91
13,CN(C)c1ccc2c(c1Cl)OC1(CCN(CCNC(=O)c3c(Cl)cccc3Cl)CC1)NC2=O,8.72
14,Nc1ccc2c(c1)OC1(CCN(CCNC(=O)c3c(Cl)cccc3Cl)CC1)CC2=O,7.22
15,CC(=O)N1CCC(Nc2ccc3c(c2Cl)OC2(CCN(CCNC(=O)c4c(C)cccc4C)CC2)NC3=O)CC1,5.76
16,Nc1cc2c(cc1Cl)C(=O)CC1(CCN(CCNC(=O)c3c(Cl)cccc3Cl)CC1)O2,7.50
17,CC(C)(C)OC(=O)N1CCC(Nc2cc3c(cc2Cl)C(=O)NC2(CCN(CCNC(=O)c4c(Cl)cccc4Cl)CC2)O3)CC1,9.70
18,Cc1cc2c(c(N(C)C)c1)OC1(CCN(CCNC(=O)c3c(Cl)cccc3Cl)CC1)NC2=O,7.16
19,Cc1cccc(C)c1C(=O)NCCN1CCC2(CC1)NC(=O)c1cc(Cl)c(NC3CCCC3)cc1O2,7.96
20,COCCCNc1ccc2c(c1Cl)OC1(CCN(CCNC(=O)c3c(Cl)cccc3Cl)CC1)NC2=O,8.815
21,COc1cc(OC)c2c(c1)OC1(CCN(CCNC(=O)c3c(Cl)cccc3Cl)CC1)CC2=O,6.40
22,CC(=O)N1CCC(Nc2cc3c(cc2Cl)C=CC2(CCN(CCNC(=O)c4c(Cl)cccc4Cl)CC2)O3)CC1,9.49
23,Cc1cc2c(cc1OC1CCCC1)OC1(CCN(CCNC(=O)c3c(Cl)cccc3Cl)CC1)CC2=O,9.31
24,CC(=O)N1CCC(Nc2cc(C)cc3c2OC2(CCN(CCNC(=O)c4c(C)cccc4C)CC2)NC3=O)CC1,7.05
